From ChEMBL document CHEMBL1133295, “Towards enzyme activated antiprostatic agents” (Bioorg Med Chem Lett, 2000)

What was measured:
[1] = system: LNCaP; experiment: The compound was evaluated for cytotoxicity by assessing 3H thymidine uptake in LNCaP cell line; type: functional, cell-based, Homo sapiens
[2] = system: MCF7; experiment: The compound was evaluated for cytotoxicity by assessing 3H thymidine uptake in MCF-7 cell line; type: functional, cell-based, Homo sapiens

CN(CCCl)CCCl
IC50 [1]: 64 µM
IC50 [2]: 70 µM
